The values that follow come from patent publication US7869958B2, “Structure-based modulators of B1 G-protein coupled receptors” (priority 2004, dated 2011).

The target in one test is T1, myc-mCRFR2β (R112W) (Mus musculus, UniProt Q60748, K372N/R373G/R92W/T50I).
T1 construct: expressed in transfected cells; host or cells: COSM6 cells, transient, pcDNA3; crude membranes
The test can be described thus: Radioreceptor assay, mutant receptor R112W. Particulars: COSM6 membranes, range in brackets, read-out: inhibitory binding constant Ki. From the text:
(§1) FIGS. 3A-3D depict the identification of the binding site of astressin on the 3D structure of ECD1-CRFR2β. FIG. 3A is a 2D [^15N, ^1H]-HMQC spectra of ECD1-CRFR2β in the absence and presence of astressin. FIG. 3B is a plot of the normalized chemical shift changes [Δ(δ(^1H))^2+Δ(^15N))^2/5]^1/2 observed in the complex versus the amino acid sequence. FIG. 3C is a surface representation of ECD1-CRFR2β showing the amino acids involved in binding with astressin. FIG. 3D is a competitive displacement by astressin of [^125I-DTyr^0]-astressin bound to membranes from COSM6 cells transiently expressing myc-mCRFR2β (●); myc-mCRFR2β (K92Q) (□); myc-mCRFR2β (R112E) (Δ); myc-mCRFR2β (I67E)(⋄); myc-mCRFR2β (R112W) (∇).
(§2) Radioreceptor assays. Mutant receptors or myc-mCRFR2β, were transiently transfected into COSM6 cells followed by binding to crude membrane preparations. Binding to myc-mCRFR2β was performed in triplicate, as described (See Perrin et al., 2003).

The target of another test is T2, myc-mCRFR2β (Mus musculus, UniProt Q60748, K372N/R373G/T50I).
T2 construct: expressed in transfected cells; host or cells: COSM6 cells, transient, pcDNA3; crude membranes
Nature of the test: Radioreceptor assay, displacement of [125I-DTyr0]-astressin from COSM6 membranes. The following applies: membranes from COSM6 cells transiently expressing myc-mCRFR2β; range in brackets; read-out: inhibitory binding constant Ki.
From the text: as §1, §2
On the technique in general: Loss of bound radioactivity is the signal in a displacement assay; it reports binding, not function.

Test [1] concerns the target ECD1-CRFR2β (amino acids 39-133 of mCRFR2β) (Mus musculus, UniProt Q60748, T50I). The following applies: read-out: inhibitory binding constant; soluble protein fragment ECD1-CRFR2β; range in brackets; cited from earlier work.
The next test deals with T3, myc-mCRFR2β (K92Q) (Mus musculus, UniProt Q60748, K372N/K72Q/R373G/T50I).
T3 construct: expressed in transfected cells; host or cells: COSM6 cells, transient, pcDNA3; crude membranes
The test can be described thus: Radioreceptor assay, mutant receptor K92Q. Particulars: COSM6 membranes, range in brackets, read-out: inhibitory binding constant Ki.
From the text: as §1, §2

The target of a further test is T4, myc-mCRFR2β (I67E) (Mus musculus, UniProt Q60748, I47E/K372N/R373G/T50I).
T4 construct: expressed in transfected cells; host or cells: COSM6 cells, transient, pcDNA3; crude membranes
The test can be described thus: Radioreceptor assay, mutant receptor I67E. Particulars: COSM6 membranes, range in brackets, read-out: inhibitory binding constant Ki.
From the text: as §1, §2

The target in the next test is T5, myc-mCRFR2β (R112E) (Mus musculus, UniProt Q60748, K372N/R373G/R92E/T50I).
T5 construct: expressed in transfected cells; host or cells: COSM6 cells, transient, pcDNA3; crude membranes
Nature of the test: Radioreceptor assay, mutant receptor R112E. The following applies: COSM6 membranes, range in brackets, read-out: inhibitory binding constant Ki.
From the text: as §1, §2

Regarding astressin, the Ki at myc-mCRFR2β (R112W) is 1.9 nM; on myc-mCRFR2β it was 1.1 nM; in test [1] it was 21.1 nM; on myc-mCRFR2β (K92Q), 3.1 nM; at myc-mCRFR2β (I67E), 128 nM; on myc-mCRFR2β (R112E), 7.2 nM.
